CDK5 inh = inhibitors of human CDK5/p35 kinase, primary screen, biochemical, single concentration. Cyclin-dependent kinase 5 (Homo sapiens) + Cyclin-dependent kinase 5 activator 1 (Homo …. Recombinant CDK5/p35, ADP-Glo luminescence, 60 min. inhibition, % at 10 µM. 330,000 tested, 0.01% active. AID 488839, 2010;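 active = highest replicate inhibition of at least 50% and at least 75% of replicates reaching 50%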
Rtt109 Vps75 = inhibitors of C. albicans Rtt109/Vps75 HAT, primary screen, biochemical, ThioGlo CoA-SH fluorescence, plate reader | Histone acetyltransferase RTT109 (Candida albicans (strain SC5314 / ATCC MYA-2876)), … | purified Rtt109/Vps75, 4 h | inhibition, % at 34.9 µM | 330,000 tested, 0.16% active;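 active = inhibition of at least 50% in every replicate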
Yeast UUG start-1 = modulators of start codon recognition fidelity in yeast. S. cerevisiae UUG-firefly luciferase reporter, luminescence/redox ratio. activity score, % at 18.7 µM. 0.13% of 350,000 active. AID 602363;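 active = replicate mean at a twofold rise or more, about +100% in these data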;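 also: firefly luciferase made from a UUG start codon reports start codon fidelity; reporter light over untreated wells divided by growth signal over untreated wells; some hits fall short of that in this replicate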
Statin myotox sup = suppressors of statin myotoxicity in C2C12 myotubes, primary screen, cell-based, single point, plate reader. AID 602340, 2012. C2C12 myotubes + simvastatin, ATP luminescence, 48 h; scaled: DMSO 0, geranylgeraniol control 100. rescue of ATP level, % at 7.49 µM. 330,000 tested, 0.78% active;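 active = mean ATP rescue above about 67%, or every replicate alone reaching that limit, limit read from the data, passing the limit was not always enough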;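 note: myotubes were challenged with 10 µM simvastatin during compound exposure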
Cneo AK release = Cryptococcus neoformans cell lysis inducers, primary screen, AK release luminescence, single concentration. C. neoformans lysis, adenylate kinase release luminescence, 4 h; normalised: neutral wells 0, clomiphene wells 100. lysis activity, % at 15 µM. 360,000 tested, 0.2% active. AID 651654, 2012;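 active = mean lysis activity across replicates of at least 80%, whatever share of replicates individually reach that level; inactive = mean lysis activity below 80%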
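Assay system: log-phase C. neoformans yeast / Quantity: yeast cell density of 5 × 10^6 cells/mL / Medium: fresh YPD growth medium / Compound: single dose / Timing: static 4 h at 37 °C with compound, 1 h detection / Measured by: adenylate kinase release luminescence / Read-out: lysis from increased AK signal / Benchmarks: Clomiphene as positive lysis control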
Yeast UUG start-2 = enhancers of UUG start codon usage in yeast, dose response, S. cerevisiae, UUG firefly luciferase, cherry-pick, set 2; shares compounds with Yeast UUG start-1; luminescence, 4 h; 100% means double the DMSO signal; activation, % at 38 µM; 540 tested, under 10 active;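 active = signal increase whose fitted curve reaches an absolute level of 40 at a concentration under 10 µM; inactive = activity opposite to the expected increase, or the rest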
Hits are given with their value. A selection: hits, their analogues and other compounds. The true share with any hit is near 1%.

COc1ccc2oc(C(=O)OCC(=O)NC(C)c3ccccc3)c(C)c2c1 (configuration not stated) was read as CDK5 inh inactive, Rtt109 Vps75 inactive, Yeast UUG start-1 inactive, Cneo AK release inactive and Yeast UUG start-2 inactive.
`COc1ccc2oc(C(=O)OCC(=O)Nc3ccccc3)c(C)c2c1` gave CDK5 inh inactive, Rtt109 Vps75 inactive, Yeast UUG start-1 inactive and Cneo AK release inactive.
Screening COc1ccc2oc(C(=O)OCC(=O)N(C)Cc3ccccc3)c(C)c2c1 returned CDK5 inh inactive, Rtt109 Vps75 inactive, Yeast UUG start-1 inactive, Statin myotox sup inactive, Cneo AK release inactive and Yeast UUG start-2 inactive.
For CC(C)NC(=O)N(C)C[C@H]1Oc2ccc(NC(=O)Nc3ccc4c(c3)OCO4)cc2C(=O)N([C@@H](C)CO)C[C@H]1C the results were Yeast UUG start-1 inactive, Statin myotox sup inactive and Cneo AK release inactive.
Screening C[C@@H]1CCCCO[C@H](CN(C)S(C)(=O)=O)[C@@H](C)CN([C@H](C)CO)C(=O)c2cc(NC(=O)Nc3cccc4ccccc34)ccc2O1 returned Yeast UUG start-1 inactive and Cneo AK release inactive.
Screening CCCCCn1c(SCCN2CCOCC2)nc2c1c(=O)[nH]c(=O)n2C returned CDK5 inh inactive, Rtt109 Vps75 inactive, Yeast UUG start-1 361, Statin myotox sup inactive, Cneo AK release inactive and Yeast UUG start-2 inactive.
`CCCCCCn1c(SCCN2CCOCC2)nc2c1c(=O)[nH]c(=O)n2C` gave CDK5 inh inactive, Rtt109 Vps75 inactive, Yeast UUG start-1 inactive and Cneo AK release inactive.
OCCNc1nc(NCc2ccccc2)c2ccccc2n1 was read as CDK5 inh inactive, Rtt109 Vps75 inactive, Yeast UUG start-1 155, Statin myotox sup inactive, Cneo AK release inactive and Yeast UUG start-2 inactive.
For C[C@@H]1CN([C@H](C)CO)C(=O)c2cccc(NC(=O)NC3CCCCC3)c2O[C@@H]1CN(C)C(=O)Nc1cccc2ccccc12 the results were Yeast UUG start-1 inactive, Statin myotox sup inactive and Cneo AK release inactive.
Screening Cc1ccccc1-n1c(SCC(=O)N(C)C2CCS(=O)(=O)C2)nnc1-c1ccncc1 (configuration not stated) returned CDK5 inh inactive, Rtt109 Vps75 inactive, Yeast UUG start-1 inactive, Statin myotox sup inactive and Cneo AK release inactive.
`Cc1ccccc1-n1c(SCC(=O)c2cc(C)n(C)c2C)nnc1-c1ccncc1` gave CDK5 inh inactive, Rtt109 Vps75 inactive, Yeast UUG start-1 inactive, Statin myotox sup inactive, Cneo AK release inactive and Yeast UUG start-2 inactive.
For C[C@@H]1CN([C@H](C)CO)C(=O)c2cccc(NC(=O)Nc3ccc(C(F)(F)F)cc3)c2O[C@H]1CN(C)S(C)(=O)=O the results were Yeast UUG start-1 inactive, Statin myotox sup inactive and Cneo AK release inactive.
`O=C(NCCN1CCOCC1)C(=O)NCC1OCCCN1S(=O)(=O)c1cc(F)ccc1F` (configuration not stated) gave CDK5 inh inactive, Rtt109 Vps75 inactive, Yeast UUG start-1 172, Statin myotox sup inactive, Cneo AK release inactive and Yeast UUG start-2 inactive.
`COc1ccc(-c2oc(NC(=O)CSc3ncn[nH]3)c(C#N)c2-c2ccc(OC)cc2)cc1` gave CDK5 inh inactive and Rtt109 Vps75 inactive.
`COc1ccc(-c2oc(NC(=O)CCl)c(C#N)c2-c2ccc(OC)cc2)cc1` gave CDK5 inh inactive, Rtt109 Vps75 inactive, Yeast UUG start-1 308, Statin myotox sup inactive, Cneo AK release inactive and Yeast UUG start-2 inactive.
Screening C[C@H](CO)N1C[C@H](C)[C@H](CN(C)Cc2ccc(Oc3ccccc3)cc2)Oc2ccc(NC(=O)C3CC3)cc2CC1=O returned Yeast UUG start-1 inactive, Statin myotox sup inactive and Cneo AK release inactive.
`CCCNC(=O)N[C@H]1C=C[C@@H](CC(=O)NCCc2ccccc2)O[C@H]1CO` gave Statin myotox sup inactive.
`COc1ccccc1OCCNC(=O)c1ccc(NC(=O)CC2SC(N3CCCC3)=NC2=O)cc1` (configuration not stated) gave CDK5 inh inactive, Rtt109 Vps75 inactive, Yeast UUG start-1 inactive, Statin myotox sup inactive and Cneo AK release inactive.
Screening COc1ccccc1CCNC(=O)c1ccc(NC(=O)CC2SC(N3CCCCC3)=NC2=O)cc1 (configuration not stated) returned CDK5 inh inactive, Rtt109 Vps75 inactive, Yeast UUG start-1 117, Statin myotox sup inactive, Cneo AK release inactive and Yeast UUG start-2 inactive.
N=c1c(C(=O)NC2CCCC2)cc2c(=O)n3ccccc3nc2n1CCN1CCOCC1 was read as CDK5 inh inactive, Rtt109 Vps75 inactive, Yeast UUG start-1 474, Statin myotox sup inactive, Cneo AK release inactive and Yeast UUG start-2 inactive.
`N=c1c(C(=O)NC2CCCC2)cc2c(=O)n3ccccc3nc2n1CCCN1CCOCC1` gave CDK5 inh inactive, Rtt109 Vps75 inactive, Yeast UUG start-1 inactive, Statin myotox sup inactive and Cneo AK release inactive.
`CNC[C@@H]1Oc2cc(C#CCN(C)C)ccc2S(=O)(=O)N([C@H](C)CO)C[C@H]1C` gave Yeast UUG start-1 inactive, Statin myotox sup inactive and Cneo AK release inactive.
CO[C@H]1CN(C)C(=O)c2cc(NC(=O)c3cc(C)on3)ccc2OC[C@H](C)NC[C@H]1C was read as Statin myotox sup inactive and Cneo AK release inactive.
C[C@@H]1CN([C@@H](C)CO)C(=O)c2cc(C#Cc3cccnc3)cnc2O[C@H]1CN(C)Cc1ccccc1 was read as Yeast UUG start-1 inactive, Statin myotox sup inactive and Cneo AK release inactive.
O=C(Nc1cnc2ccccc2c1)N1CCOCC1 was read as CDK5 inh inactive, Rtt109 Vps75 inactive, Yeast UUG start-1 105, Cneo AK release inactive and Yeast UUG start-2 inactive.
O=C(Nc1cnc2ccccc2c1)N1CCCCC1 was read as CDK5 inh inactive and Rtt109 Vps75 inactive.
CC1(C#CC[N+]2(C)CCCCC2)CCC2C(O1)c1ccccc1OC2(C)C (configuration not stated) was read as CDK5 inh inactive, Rtt109 Vps75 inactive, Yeast UUG start-1 active, Cneo AK release inactive and Yeast UUG start-2 inactive.
CC1(C(O)(C#CC[N+]2(C)CCCCC2)c2ccccc2)CCCC1 (configuration not stated) was read as CDK5 inh inactive, Rtt109 Vps75 inactive and Statin myotox sup inactive.
Screening O=C1c2ccccc2C(=O)c2c(Nc3ccc(CCO)cc3)ccc(O)c21 returned CDK5 inh inactive, Rtt109 Vps75 inactive, Yeast UUG start-1 active, Statin myotox sup inactive, Cneo AK release inactive and Yeast UUG start-2 inactive.
